Test system: reactive microglia
Assay: ED-1 immunocytochemistry of cultured brain explants
Format: cell-based, rat
Conditions: ZPAD 20 μM, mevastatin 20 μM or PD98059 50 μM alone, 6 days
Description: Immunocytochemical studies using the monoclonal antibody ED-1 that recognizes reactive microglia were used at 1:1000 dilution following standard immunohistochemical procedures. Microglial activation was determined by measuring cell numbers, optical density, and size of cell bodies using the program NIH Image. Brain tissue was cultured for 12 days and treated with ZPAD (20 μM) in the presence or absence of PD98059 (50 μM) for 6 days (FIG. 18). Cultured explants were then sliced and stained by using monoclonal antibody ED-1 which recognizes reactive microglia, a classical marker of inflammation. […] Rat brain tissues were cultured for 10 days and incubated with vehicle (Cont), ZPAD (20 μM), mevastatin (Mev, 20 μM), or mevastatin plus […]) for 6 days (FIG. 19). Cultured brain explants were then sliced and stained by using monoclonal antibody ED-1, a classical marker for reactive microglia and macrophages.

Question: `CC[C@H](C)C(=O)O[C@H]1CCC=C2C=C[C@H](C)[C@H](CC[C@@H]3C[C@@H](O)CC(=O)O3)[C@H]21` [mevastatin] was tested. Which “reaction of microglia (ED-1 staining)” value did it give?
Answer: induced dramatic morphologic changes of microglia

— US6803233B2, “Model for Alzheimer's disease and other neurodegenerative diseases” (priority 2000, dated 2004)
